Test results reported in ChEMBL document CHEMBL1132457, “Pyrazolo[4,3-e]-1,2,4-triazolo[1,5-c]pyrimidine derivatives as highly potent and selective human A(3) adenosine receptor antagonists” (J Med Chem, 1999).

Sequences of proteins named here, by UniProt entry; tags and fusion partners are left off.
UniProt P0DMS8, whole entry, looked up: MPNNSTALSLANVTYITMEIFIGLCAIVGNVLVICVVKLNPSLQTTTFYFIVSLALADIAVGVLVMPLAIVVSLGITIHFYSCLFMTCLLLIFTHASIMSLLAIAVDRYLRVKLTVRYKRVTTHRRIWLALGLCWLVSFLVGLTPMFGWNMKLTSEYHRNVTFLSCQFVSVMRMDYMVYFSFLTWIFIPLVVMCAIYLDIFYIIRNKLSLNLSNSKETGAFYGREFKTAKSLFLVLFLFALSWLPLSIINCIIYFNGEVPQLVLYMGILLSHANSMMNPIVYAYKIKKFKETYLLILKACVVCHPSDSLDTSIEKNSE
UniProt P30542, whole entry, looked up: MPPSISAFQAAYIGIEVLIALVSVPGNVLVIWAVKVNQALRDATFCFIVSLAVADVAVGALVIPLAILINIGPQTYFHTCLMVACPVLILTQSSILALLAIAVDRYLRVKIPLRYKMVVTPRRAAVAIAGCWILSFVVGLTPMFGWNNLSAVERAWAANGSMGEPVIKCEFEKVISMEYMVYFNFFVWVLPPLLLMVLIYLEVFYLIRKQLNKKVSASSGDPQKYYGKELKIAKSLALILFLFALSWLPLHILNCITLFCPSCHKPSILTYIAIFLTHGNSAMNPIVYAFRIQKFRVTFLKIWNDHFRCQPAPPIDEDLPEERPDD

Key:
Type in all cases: cell-based
HEK293 [1] = assay: Ratio of binding affinity for rat adenosine A1 and human adenosine A3 receptors expressed in HEK293 cells
[2] = biological target: Adenosine receptors; A2a & A3 (Homo sapiens) (UniProt P0DMS8+P29274); assay: Ratio of binding affinity for human adenosine A2A and A3 receptors expressed in HEK293 cells
HEK293 [3] = assay: Ratio of binding affinity for rat adenosine A2A of striatal membranes and human adenosine A3 receptors expressed in HEK293 cells
[4] = biological target: Adenosine receptors; A1 & A3 (Homo sapiens) (UniProt P30542+P0DMS8); assay: Ratio of binding affinity for human adenosine A1 and A3 receptors expressed in HEK293 cells

CCCn1cc2c(nc(NC(=O)Nc3ccc(OC)cc3)n3nc(-c4ccco4)nc23)n1 gave a Ratio (HEK293 [1]) greater than 34500, a Ratio [2] of 486 and a Ratio (HEK293 [3]) of 6870. The Ratio [4] was 4130.
